Measurements taken from PubChem BioAssay AID743255 (National Center for Advancing Translational Sciences (NCATS), 2014).
This is a selection; strong and weak results do not stand in their true shares. Inconclusive results are not listed. Calls of active or inactive are those of the source. The call rests on the fitted dose curve; in most records, active means well fitted inhibition curve with a large enough effect; inconclusive means small, poorly fitted or top-dose-only effect; inactive means no such curve, though single readings can be large or run the other way.

By UniProt entry, the sequences of proteins in these tests, tags left out. Where a name states a change or a piece, a line headed by the entry shows the natural chain unless it says otherwise.
UniProt O94782: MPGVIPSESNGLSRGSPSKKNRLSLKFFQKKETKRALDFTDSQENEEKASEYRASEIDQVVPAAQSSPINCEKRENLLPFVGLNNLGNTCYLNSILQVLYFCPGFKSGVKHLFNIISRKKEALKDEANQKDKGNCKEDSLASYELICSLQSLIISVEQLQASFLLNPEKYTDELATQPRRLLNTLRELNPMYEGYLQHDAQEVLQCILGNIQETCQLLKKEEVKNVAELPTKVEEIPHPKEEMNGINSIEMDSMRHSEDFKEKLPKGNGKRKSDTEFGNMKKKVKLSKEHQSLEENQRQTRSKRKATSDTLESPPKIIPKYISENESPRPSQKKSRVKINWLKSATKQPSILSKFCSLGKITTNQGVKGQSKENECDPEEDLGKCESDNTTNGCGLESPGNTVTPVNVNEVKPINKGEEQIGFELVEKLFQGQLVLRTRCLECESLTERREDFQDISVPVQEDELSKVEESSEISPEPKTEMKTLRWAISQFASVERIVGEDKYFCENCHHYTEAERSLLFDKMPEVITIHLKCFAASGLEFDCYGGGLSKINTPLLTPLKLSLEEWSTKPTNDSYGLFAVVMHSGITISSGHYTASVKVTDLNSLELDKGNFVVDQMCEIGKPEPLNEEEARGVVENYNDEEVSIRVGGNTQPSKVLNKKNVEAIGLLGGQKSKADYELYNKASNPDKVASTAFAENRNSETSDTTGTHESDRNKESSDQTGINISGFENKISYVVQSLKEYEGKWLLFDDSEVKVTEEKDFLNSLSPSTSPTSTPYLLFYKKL

These compounds were tested against Ubiquitin carboxyl-terminal hydrolase 1 (Homo sapiens) (UniProt O94782) (assay: Inhibitors of USP1/UAF1: Primary Screen). Settings: recombinant USP1/UAF1, Ub-Rhodamine cleavage fluorescence; at 57.1 µM (top of the series).
Source text: Deubiquitinating enzymes (DUBs) are a class of enzymes that can cleave isopeptide bond formed between the C-terminal carboxylate of ubiquitin and a lysine side-chain amino group on the target protein. Among them, ubiquitin specific proteases (USPs) constitute the largest DUB family. Human USPs are emerging as promising targets for pharmacological intervention because of their connection to a number of human diseases, including prostate, colon and breast cancer (1, 2), pediatric acute lymphoblastic leukemia (3), and familial cylindromatosis (4). The advantage of inhibiting USPs lies in the potential specificity of therapeutic intervention that can lead to better efficacy and reduce nonspecific side effects. In a collaboration between the University of Delaware and the NIH Chemical Genomics Center, a high-throughput screen assay was developed to screen for USP1/UAF1 inhibitors. This miniaturized assay has a fluorescent read-out and is used to screen the NIH Molecular Libraries Small Molecule Repository (MLSMR) in order to identify a small molecule that inhibits USP1. NIH Chemical Genomics Center [NCGC] NIH Molecular Libraries Probe Centers Network [MLPCN] MLPCN Grant: DA030552 Assay Submitter (PI): Zhihao Zhuang, University of Delaware 1. Priolo, C., et al. (2006) The isopeptidase USP2a protects human prostate cancer from apoptosis. Cancer Res 66, 8625-8632 2. Popov, N., et al. (2007) The ubiquitin-specific protease USP28 is required for MYC stability. Nat Cell Biol 9, 765-774 3. De Pitta, C., et al. (2005) A leukemia-enriched cDNA microarray platform identifies new transcripts with relevance to the biology of pediatric acute lymphoblastic leukemia. Haematologica 90, 890-898 4. Kovalenko, A., et al. (2003) The tumour suppressor CYLD negatively regulates NF-kappaB signalling by deubiquitination. Nature 424, 801-805
3 microliters of reagents (buffer in columns 3 and 4 as negative control and 1nM USP1/UAF1 complex in columns 1, 2, and 5-48) are dispensed into Greiner black solid bottom 1536-well assay plates. Compounds are then transferred via Kalypsys pin tool equipped with 1536-pin array (10nl slotted pins, V&P Scientific, San Diego, CA). Following an incubation step of 15 min at room temperature, 1ul of Ub-Rho substrate (150nM final concentration) is added to initiate the reaction. The plates are immediately centrifuged at 1000 rpm for 15 seconds, and subsequently transferred to a ViewLux high-throughput CCD imager (PerkinElmer) wherein kinetic measurements of fluorescence are acquired using 480 nm excitation/540 nm emission filter set (6 reads every 60 seconds, see Table 1). All reagents are diluted in an assay buffer consisting of 50mM HEPES (pH 7.8), 0.5mM EDTA, 0.1 mg/ml BSA, 1mM TCEP, and 0.01% Tween-20.
Further: nearly all actives have a fitted effect of over 60% in size.
On the % scale 0 is the no-effect control and ±100 the full control effect.

SMILES	activity change, negative = inhibition
CCCOP(=S)(Nc1nc(N)cc(=O)[nH]1)OCCC	inactive: -11.1%
Cc1ccc(NCCc2c([N+](=O)[O-])cc([N+](=O)[O-])cc2[N+](=O)[O-])cc1	inactive: -19%
CCOP(=O)(Nc1cccc2ccccc12)OCC	inactive: -15.9%
COc1cc(C2NCCC3(OCCO3)C2(C)C)cc(OC)c1OC (stereo not given)	inactive: -18%
CS(=O)(=O)c1ccc(Cl)c(NC(=O)COC(=O)C(O)(c2ccccc2)c2ccccc2)c1	inactive: -20.5%
O=[As](O)(O)c1cccnc1	inactive: -22.3%
COc1cc(C(=O)NCC2(N3CCOCC3)CCCCC2)cc(Cl)c1OC(C)C	inactive: -5.97%
O=C(OC1CN2CCC1CC2)c1ccc(Cl)cc1 (stereo not given)	inactive: -16.2%
Cc1cccc(OCC(=O)OC2CN3CCC2CC3)c1 (stereo not given)	inactive: 0.69%
O=[As](O)(c1cccc(O)c1)c1cccc(O)c1	inactive: -16.8%
NC(=O)Nc1ccc([As](=O)(O)O)cc1	inactive: -20.6%
CN(C(=O)Cc1ccc(Cl)c(Cl)c1)[C@H]1CC[C@@]2(CCCO2)C[C@@H]1N1CCCC1	inactive: -24.1%
O=[N+]([O-])c1ccc2c(c1)nnn2O	inactive: 0.473%
CN(C)C(=O)c1cc([N+](=O)[O-])cc2c1-c1c(cc([N+](=O)[O-])cc1[N+](=O)[O-])C2=O	inactive: -29.9%
CCOP1(=S)c2c(C)nn(CCC#N)c2N=C(c2ccc(F)cc2)N1C (stereo not given)	inactive: -14.5%
CN(C(=O)Cc1ccccc1)[C@@H]1CC[C@]2(CCCO2)C[C@H]1N1CCCC1	inactive: -26.7%
N#CCCN(C(=O)COC(=O)C(O)(c1ccccc1)c1ccccc1)c1ccc(F)cc1	inactive: -3.36%
CS(=O)(=O)c1cc([N+](=O)[O-])c2no[n+]([O-])c2c1	inactive: -21.9%
O=P(Nc1nccs1)(Oc1ccccc1)Oc1ccccc1	inactive: -9.49%
O=P(Nc1nccs1)(c1ccccc1)c1nc2ccccc2s1 (stereo not given)	inactive: -3.09%
CCOP1(=S)c2c(C)nn(CCC#N)c2N=C(c2ccccc2F)N1C (stereo not given)	inactive: -10.1%
O=C(O)COc1ccc([As](=O)(O)O)cc1[N+](=O)[O-]	inactive: -11.1%
Nc1ccccc1[As](=O)(O)c1ccccc1	inactive: -16.5%
O=P1(Nc2ncccn2)COc2ccccc2OC1	inactive: -0.27%
O=[As](O)(c1cccs1)c1cccs1	inactive: -22.5%

SMILES	activity change, negative = inhibition
Cc1ccc(OCC(=O)OC2CN3CCC2CC3)cc1 (stereo not given)	inactive: -14.5%
NS(=O)(=O)c1cccc(NC(=O)COC(=O)C(O)(c2ccccc2)c2ccccc2)c1	inactive: -18.8%
O=P1(Nc2ccc(Br)cn2)COc2ccccc2OC1	inactive: -26.1%
Nc1cccc([As](=O)(O)c2ccccc2)c1	inactive: -17.9%
Cc1ccc(C(=O)OC2CN3CCC2CC3)cc1 (stereo not given)	inactive: -19.5%
CC1CCC(C(C)C)C(OP(=O)(Nc2ccccn2)c2ccccc2)C1 (stereo not given)	inactive: -13.4%
Cc1nn(-c2ccccc2)c2c1P(=O)(N1CCOCC1)N(C)C(c1ccccc1)=N2 (stereo not given)	inactive: -10.5%
CCCC1OP(=O)(Nc2ccccc2)OCC1CC (stereo not given)	inactive: -12.8%
O=C(/C=C/c1ccccc1)OC1CN2CCC1CC2 (stereo not given)	inactive: -2.38%
CN(C)C1(CNC(=O)c2ccc(S(C)(=O)=O)cc2)CCCCC1	inactive: -4.18%
COc1ccccc1CNC(=O)COC(=O)C(O)(c1ccccc1)c1ccccc1	inactive: -9.77%
CC1(CBr)Cn2c(nc3ccccc3c2=O)S1 (stereo not given)	inactive: -25%
CN(C(=O)Cc1ccc(Cl)c(Cl)c1)[C@@H]1CCCC[C@H]1N1CCCC1	inactive: 13.8%
CC(C)/C=N\N=C(\N)N[N+](=O)[O-]	inactive: -19.9%
CCOP(=O)(Nc1ccc(C)cn1)OCC	inactive: -24.2%
CN(CCCl)Cc1cc(Cl)c(NC2=NCCN2)c(Cl)c1	inactive: 22.9%
CCOP(=O)(NC(=NC(C)c1ccccc1)NC(C)c1ccccc1)OCC (stereo not given)	inactive: -20.6%
CCC1=CC2Cc3nc4ccc(Cl)cc4c(N)c3C(C1)C2 (stereo not given)	inactive: -18%
O=P1(Nc2ccccn2)COc2ccccc2OC1	inactive: -3.32%
CC(C)(C)C(=O)NC(Sc1ncccn1)C(Cl)(Cl)Cl (stereo not given)	inactive: 2.59%
Clc1n[nH]nc1-c1nn[nH][15n]1	inactive: -6.92%
O=P1(N(CCCl)CCCl)NCCC(C(F)(F)F)O1 (stereo not given)	inactive: -24.1%
CCOC(=O)c1ccc(NC(=O)C(C)(CCl)SC)cc1 (stereo not given)	inactive: 1.41%
CSc1ccc(Nc2c([N+](=O)[O-])cc([N+](=O)[O-])cc2[N+](=O)[O-])cc1	inactive: -8.92%
O=C(OC1CN2CCC1CC2)c1cccc([N+](=O)[O-])c1 (stereo not given)	inactive: -21.2%
